One block for each binder: values may come before it.
Molecular target: T1, recombinant MAP-1 (human, UniProt P48740-3 20-380)
T1 construct: MBL/ficolin/CL-associated protein 1 (MAP-1, MAp44), product of the MASP1 gene; construct of the in-house rMAP-1 not described; also called rMAP-1; MAp44; source: produced in house
T1 sequence (looked up): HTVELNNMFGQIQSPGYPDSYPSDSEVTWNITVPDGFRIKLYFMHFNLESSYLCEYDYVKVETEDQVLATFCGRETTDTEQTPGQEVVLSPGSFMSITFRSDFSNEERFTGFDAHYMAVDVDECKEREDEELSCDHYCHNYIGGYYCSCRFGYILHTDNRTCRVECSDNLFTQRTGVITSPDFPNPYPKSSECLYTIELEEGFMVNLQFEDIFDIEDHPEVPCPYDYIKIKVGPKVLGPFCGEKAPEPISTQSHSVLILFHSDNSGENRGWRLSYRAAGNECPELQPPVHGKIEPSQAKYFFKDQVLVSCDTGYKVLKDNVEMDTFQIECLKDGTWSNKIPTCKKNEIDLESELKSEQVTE
Assay: ELISA; rMBL or rCL-11 (2 μg/ml) held on mannan-coated wells; serial dilutions of the proteins from 13.5 nM in TBS/Tween/Ca^2+ (5 mM CaCl2), 2 h; detected with biotinylated anti-MASP-1/-3/MAP-1 mAb 8B3; Kd = concentration at half of the maximum binding, fit specific binding with Hill slope, Bmax shared
Details: both partners purified

Kd: 0.14 nM
B1: recombinant MBL (natural protein, UniProt P11226 21-248, looked up)
chain: ETVTCEDAQKTCPAVIACSSPGINGFPGKDGRDGTKGEKGEPGQGLRGLQGPPGKLGPPGNPGPSGSPGPKGQKGDPGKSPDGDSSLAASERKALQTEMARIKKWLTFSLGKQVGNKFFLTNGEIMTFEKVKALCVKFQASVATPRNAAENGAIQNLIKEEAFLGITDEKTEGQFVDLTGNRLTYTNWNEGEPNNAGSDEDCVLLLKNGQWNDVPCSTSHLAVCEFPI
notes: Oligomeric collectin; held on mannan-coated wells in the ELISA; Detected with an anti-human MBL antibody, so probably human; also called rMBL; source: produced in house

Kd: 1.65 nM
B2: recombinant CL-11 (natural protein, UniProt Q9BWP8 26-271, looked up)
chain: QPAGDDACSVQILVPGLKGDAGEKGDKGAPGRPGRVGPTGEKGDMGDKGQKGSVGRHGKIGPIGSKGEKGDSGDIGPPGPNGEPGLPCECSQLRKAIGEMDNQVSQLTSELKFIKNAVAGVRETESKIYLLVKEEKRYADAQLSCQGRGGTLSMPKDEAANGLMAAYLAQAGLARVFIGINDLEKEGAFVYSDHSPMRTFNKWRSGEPNNAYDEEDCVEMVASGGWNDVACHTTMYFMCEFDKENM
notes: collectin-11 (CL-11, CL-K1); Held on mannan-coated wells in the ELISA; also called rCL-11; collectin-11; source: produced in house

From article PMC6120983, “Chimeric Proteins Containing MAP-1 and Functional Domains of C4b-Binding Protein Reveal Strong Complement Inhibitory Capacities” (Frontiers in Immunology, 2018)
